# Ab-14 heavy chain CDR variants: yeast mating affinities

All variants were tested on one target, the spike HR2 peptide PDVDLGDISGINAS (SARS-CoV-2).

The variants keep the light chain, the linker and the frameworks of Ab-14 (scFv order VH, a 15-residue (Gly4Ser)3 linker, VL).
VH: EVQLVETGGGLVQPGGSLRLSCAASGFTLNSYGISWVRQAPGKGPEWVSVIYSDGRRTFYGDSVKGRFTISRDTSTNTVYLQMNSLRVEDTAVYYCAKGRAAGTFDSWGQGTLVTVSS
VL: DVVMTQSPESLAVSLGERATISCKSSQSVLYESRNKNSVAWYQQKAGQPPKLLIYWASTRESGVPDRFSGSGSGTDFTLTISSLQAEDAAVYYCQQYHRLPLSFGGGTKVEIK

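Library AAYL49 holds single substitutions and randomly drawn double and triple substitutions in the CDRs. The assay is AlphaSeq: two haploid yeast populations carry antibody and antigen on their surface. Pairs that bind mate more often; barcode pairs of the diploids are counted by sequencing. Read counts were normalised to the haploid input and turned into Kd by a linear fit to BCL2-family pairs of known affinity, for each replicate. Each pool was mated in three replicate cultures.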

Each variant is given by its three heavy chain CDRs, as the data file delimits them; those of the parent are GFTLNSYGIS, VIYSDGRRTFYGDSVK, GRAAGTFDS. Scale: log10 of Kd in nM, estimated from mating counts; low values are strong binders. A mean of the replicates is given; it leaves out those without a signal. "not detected" means that the variant was in the library but no mating with the target was seen in any replicate; the authors take this as a sign of poor binding, and no number exists. As a blank, each scFv also met three strains without target: over library AAYL49, 15% of these pairings were detected, typically at 4.06 and seldom below 2.83. Also given: how often the same scFv was detected with the empty control strains. Parent in this assay: reference entry 0.65, copy in this library 4.11 (one replicate of three).

CDR-H1	CDR-H2	CDR-H3	mean, log10 nM	seen in	control signals
GFALNSHGIS	VIYSAGRRTFYGDSVK	GRAAGTFDS	not detected	0 of 3	1 of 9
GFTLNSYGIS	VINSDGRRTFAGDSVI	GRAAGTFDS	4.36	1 of 3	1 of 9
GFTLNSYGIS	VWYSDGRRTFYGDSVK	GRAAGTFES	4.51	1 of 3	0 of 9
GFTLNSFGIS	VIYSDKRRTFYGDSVK	FRAAGTFDS	4.60	2 of 3	8 of 9
GFTLNSYEIS	VIYSDGRRHFYGDTVK	GRAAGTFDS	not detected	0 of 3	0 of 9
GFTLNSEGIK	VIYSDGRRTFYGDSVK	GRAAGTFDK	not detected	0 of 3	0 of 9
GFTLNSYCIS	VIYSDGTRTFYGDQVK	GRAAGTFDS	not detected	0 of 3	0 of 9
GFTLPSYGIS	VIYSDGRRTFYGDSTK	GRAAGTFDS	4.98	1 of 3	1 of 9
GFTLNSYGIT	VIYSDGRRTFYGDSVK	GRAAWTFWS	not detected	0 of 3	1 of 9
GYTLNSSGIS	VIYSDGRRTFYGDSVK	GRAAGTFDS	not detected	0 of 3	1 of 9
GFTLNSYCIS	VIYSDGRRTFYGPSVC	GRAAGTFDS	3.11	1 of 3	1 of 9
GYTANSYGIS	VIYSDGRRTFYGDSVK	GRAQGTFDS	4.25	3 of 3	3 of 9
GFTLNSYGIS	VISHYGRRTFYGDSVK	GRAAGTFDS	not detected	0 of 3	0 of 9
GFTLNSYGIS	VIYSDGRRTFYGDSQK	GRAFGTFDS	4.58	2 of 3	1 of 9
GFTLNSYGIS	VDYSDGRRTFYGDCIK	GRAAGTFDS	3.69	1 of 3	0 of 9
GFTLNSGGIS	YIYSDGMRTFYGDSVK	GRAAGTFDS	4.25	3 of 3	2 of 9
GFTLNSYGIS	VIYSDCRRTAYGDSVK	GRAAGTVDS	4.70	1 of 3	3 of 9
GFTLNSYGIS	VIYSDGRRTHYGDCVK	GRAATTFDS	not detected	0 of 3	1 of 9
GFTGNSYGIS	VISSDGRRTFYGDSVK	GRYAGTFDS	not detected	0 of 3	2 of 9
GFTLNSYGIS	VIYSDGRRTFYGDSVF	GRAAGDFDS	1.53	3 of 3	2 of 9
GFTLNSYGID	VQYSDGRRTFYGDSVK	GRAAFTFDS	not detected	0 of 3	1 of 9
GFTLNSYGIS	VIYRDGRRTQYGDSVK	GRAAGTFDC	3.83	2 of 3	2 of 9
GFTLNSYGIS	VIYSDYRRGFYGDSVK	GRAAGTPDS	4.31	1 of 3	2 of 9
GAGLNSYGIS	VIYSDGRRTFYGDSVK	GRAAGWFDS	3.40	1 of 3	0 of 9
GYTLNHYGIS	VIYSDGRRFFYGDSVK	GRAAGTFDS	2.14	3 of 3	2 of 9
GFTLWSYGIS	VIYSDGRRTFYGTSVK	GRAAGTFDS	3.54	2 of 3	3 of 9
GFTLNSYGIS	RIYSQGRRTFYGDSVK	GRAAGTFDS	not detected	0 of 3	1 of 9
GFTLNSYGID	VIYSDGRRTFYGDSVK	GRAAGSFDP	not detected	0 of 3	0 of 9
HFTLNSYGIS	VIYSDGRRTSYGDSVK	GRAAMTFDS	not detected	0 of 3	1 of 9
AFTLNSYGIS	VIYSDGRRTFYGKSVD	GRAAGTFDS	4.35	3 of 3	4 of 9
GFTLNSYDIS	VIYSDGRRTFYGDSVK	GRVTGTFDS	not detected	0 of 3	2 of 9
GATLNSYVIS	VIYSDGRRTFYGDSVK	GRAAGTFFS	not detected	0 of 3	2 of 9
GFTCNSYGIS	VIHSDGRYTFYGDSVK	GRAAGTFDS	5.00	1 of 3	0 of 9
GFTQNSYGIW	VIYSDGRRTFYGDSVK	GRAAGTLDS	4.49	1 of 3	4 of 9
EFTLNSYGIS	VSYSDGRRTFLGDSVK	GRAAGTFDS	3.11	1 of 3	0 of 9
GFTLNSYGIS	VIYSDGRREFYGDSVK	GRAAGTHDS	1.92	3 of 3	0 of 9
GFTWNSYSIS	VIYSDGRRTFYGDSVK	GRAAGTLDS	4.47	2 of 3	7 of 9
GFTLNSYGIS	VIYSDGRRTLYGDSVK	LRAAGTFDG	not detected	0 of 3	0 of 9
GFTLNSYGIS	VIKSDGYRTFYGFSVK	GRAAGTFDS	not detected	0 of 3	2 of 9
GFELNSYGIS	VIYSDGRRTHYGDSVK	GRATGTFDS	not detected	0 of 3	2 of 9
GFTLNFYGIS	VIMSDYRRTFYGDSVK	GRAAGTFDS	not detected	0 of 3	0 of 9
GFTTNSYGIS	SIYSDWRRTFYGDSVK	GRAAGTFDS	4.23	3 of 3	8 of 9
GFTFNSYGIS	VIYSDGRRTFYGDSVK	GRAAYTYDS	not detected	0 of 3	1 of 9
GFTLNSYGIS	VIESDGRRTFYGDSVK	GRVAETFDS	not detected	0 of 3	1 of 9
GFTLNSYGIS	VIYSDGMRTFYGDSVK	GYAEGTFDS	not detected	0 of 3	3 of 9
GFTLNSYGMS	VIQSDGRRTFYGDSVK	GRAAGTFDS	not detected	0 of 3	3 of 9
GRTLNSYGIS	VISKDGRRTFYGDSVK	GRAAGTFDS	not detected	0 of 3	0 of 9
GFTLNSYGIS	VRYTDGRRTFYGDSVK	GRAAGTHDS	not detected	0 of 3	3 of 9
GFTLNSYHIS	VIYSDGRRTIYGDSVK	GRAAGTFDS	not detected	0 of 3	0 of 9
GFTLNSYGIK	VIYSDGRRTFQKDSVK	GRAAGTFDS	2.13	3 of 3	3 of 9
GFTLNSAGIS	VDYSDGRRTFYGDSVK	GRAAGTFKS	3.80	1 of 3	1 of 9
GFTLNSYGIS	VIYSDGRKTFYTNSVK	GRAAGTFDS	1.70	3 of 3	4 of 9
GFTLNSYFIS	VIYSDGRRTFYSESVK	GRAAGTFDS	not detected	0 of 3	2 of 9
GFTLNSYGIS	VIYSDGRRTFRGDSVK	GRAAGHFDS	not detected	0 of 3	0 of 9
GFTLNSYGIS	VIYSDGRRGFYGVSVK	GRAAGTFDS	5.09	1 of 3	2 of 9
GFTLISYGKS	VIYSDGRRTFYGDSVC	GRAAGTFDS	not detected	0 of 3	5 of 9
GFTLNSYGIS	VIYSDGRRTFYGDSVK	GRAAFTFDQ	0.54	3 of 3	3 of 9
GFTLNSYHIS	VIYSKGRRTFYGDSVK	GRQAGTFDS	not detected	0 of 3	0 of 9
GFTLNSTGIS	VIYSDGRRTFIGDSKK	GRAAGTFDS	5.00	2 of 3	2 of 9
GFTLNSQGIS	VIYSDGRRTFYGDSVK	GRAAGPNDS	not detected	0 of 3	0 of 9
GFTLNSYGIS	VHYSDGKRVFYGDSVK	GRAAGTFDS	3.65	2 of 3	7 of 9
GFTLNSYGIS	VIYSDGRRTFYIDLVK	GRAAPTFDS	not detected	0 of 3	1 of 9
GFTLDSYGIV	VIYSDGRRTFYADSVK	GRAAGTFDS	not detected	0 of 3	1 of 9
GFTLNSYGIC	VQYSDGRRTFYGDSVK	GRVAGTFDS	3.10	1 of 3	3 of 9
GFTWNSYGIS	VIYSDGRRTFYGHSVK	GRALGTFDS	not detected	0 of 3	2 of 9
GFTLNSYGIS	CIYSDGRRTFYGDSVK	SRAAGTFYS	4.21	1 of 3	0 of 9
GGNLNSYGPS	VIYSDGRRTFYGDSVK	GRAAGTFDS	3.98	1 of 3	0 of 9
GFTLNSYGIS	VIYSDGEGTFYGDLVK	GRAAGTFDS	not detected	0 of 3	0 of 9
GFTLNSYGIS	VIYSDGRRYFYGDSRK	GDAAGTFDS	not detected	0 of 3	0 of 9
GFTLNSYGIS	VIYSDGRRMFYGDSVK	VRAAGTFDS	3.67	1 of 3	1 of 9
GFTLNVYGIH	VIYSDGRRTFYGDSVK	GRAAGTFDI	4.41	2 of 3	2 of 9
GFTLNSYGIS	EIYSDGRRTFYGDSVK	VFAAGTFDS	not detected	0 of 3	1 of 9
AFTLNSYGIS	VIESDGRRTFYGDSVK	GRAAGTFDS	not detected	0 of 3	1 of 9

9 of these entries, quoted again:

CDR-H1,CDR-H2,CDR-H3,"mean, log10 nM",seen in,control signals
GFTLNSYGIS,VINSDGRRTFAGDSVI,GRAAGTFDS,4.36,1 of 3,1 of 9
GFTLNSYGIS,VIYSDGRRTFYGDSVK,GRAAFTFDQ,0.54,3 of 3,3 of 9
GFTLNSYGIS,VRYTDGRRTFYGDSVK,GRAAGTHDS,not detected,0 of 3,3 of 9
GFTLNSYGID,VIYSDGRRTFYGDSVK,GRAAGSFDP,not detected,0 of 3,0 of 9
AFTLNSYGIS,VIESDGRRTFYGDSVK,GRAAGTFDS,not detected,0 of 3,1 of 9
GFTQNSYGIW,VIYSDGRRTFYGDSVK,GRAAGTLDS,4.49,1 of 3,4 of 9
GFTLNSQGIS,VIYSDGRRTFYGDSVK,GRAAGPNDS,not detected,0 of 3,0 of 9
GYTLNSSGIS,VIYSDGRRTFYGDSVK,GRAAGTFDS,not detected,0 of 3,1 of 9
GFTLNSYGIS,VIYSDCRRTAYGDSVK,GRAAGTVDS,4.70,1 of 3,3 of 9

Reference: Engelhart et al. 2022, doi:10.1038/s41597-022-01779-4. File: FLAb, binding data.